ChEMBL document CHEMBL4619807, “Exploration of Alternative Scaffolds for P2Y14 Receptor Antagonists Containing a Biaryl Core” (J Med Chem, 2020)

The chains behind the UniProt entries cited, without tags or fusion partners. Where a name states a change or a piece, a line headed by the entry shows the natural chain unless it says otherwise.
UniProt Q12809: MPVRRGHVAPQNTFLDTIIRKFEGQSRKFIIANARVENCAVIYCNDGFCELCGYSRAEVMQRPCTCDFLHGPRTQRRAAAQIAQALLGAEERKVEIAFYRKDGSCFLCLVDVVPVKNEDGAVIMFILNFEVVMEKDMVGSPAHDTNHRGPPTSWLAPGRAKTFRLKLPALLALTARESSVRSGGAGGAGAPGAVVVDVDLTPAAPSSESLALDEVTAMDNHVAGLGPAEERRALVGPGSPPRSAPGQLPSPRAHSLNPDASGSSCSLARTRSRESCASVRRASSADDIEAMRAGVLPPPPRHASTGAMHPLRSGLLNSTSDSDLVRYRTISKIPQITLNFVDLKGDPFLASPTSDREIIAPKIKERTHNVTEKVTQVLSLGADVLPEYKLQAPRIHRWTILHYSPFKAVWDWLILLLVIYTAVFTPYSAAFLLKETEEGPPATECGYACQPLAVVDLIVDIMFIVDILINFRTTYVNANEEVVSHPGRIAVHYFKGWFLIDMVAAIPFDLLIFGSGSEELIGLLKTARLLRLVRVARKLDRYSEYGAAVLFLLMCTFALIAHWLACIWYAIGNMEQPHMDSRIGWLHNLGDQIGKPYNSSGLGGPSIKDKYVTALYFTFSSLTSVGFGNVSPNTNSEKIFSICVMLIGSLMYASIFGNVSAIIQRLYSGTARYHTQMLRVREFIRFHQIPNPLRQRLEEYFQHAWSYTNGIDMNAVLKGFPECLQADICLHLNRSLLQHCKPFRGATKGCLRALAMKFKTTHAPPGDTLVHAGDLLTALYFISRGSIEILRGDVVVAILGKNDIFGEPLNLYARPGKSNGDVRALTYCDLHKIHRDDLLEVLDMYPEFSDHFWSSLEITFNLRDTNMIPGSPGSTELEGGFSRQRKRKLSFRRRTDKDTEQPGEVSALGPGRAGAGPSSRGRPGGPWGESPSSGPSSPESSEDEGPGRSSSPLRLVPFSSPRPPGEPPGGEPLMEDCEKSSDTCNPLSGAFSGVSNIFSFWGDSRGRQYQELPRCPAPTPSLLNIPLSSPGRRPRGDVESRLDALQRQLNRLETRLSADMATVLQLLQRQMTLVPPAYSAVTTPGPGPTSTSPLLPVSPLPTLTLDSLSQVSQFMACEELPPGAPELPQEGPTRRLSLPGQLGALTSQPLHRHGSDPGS

Key:
[1] = Stability in simulated intestinal fluid assessed as compound remaining level at 120 mins; format: physicochemical; settings: simulated gi fluid, 2 h
[2] = biological target: Voltage-gated inwardly rectifying potassium channel KCNH2 (Homo sapiens, UniProt Q12809); experiment: Inhibition of human ERG
[3] = Stability in rat plasma assessed as compound remaining level at 120 mins; format: ADME, cell-free; settings: 2 h
[4] = Stability in simulated gastric fluid assessed as compound remaining level at 120 mins; format: physicochemical; settings: simulated gi fluid, 2 h

Structure (SMILES): O=C(O)c1cc(-c2ccc(C34CCN(CC3)CC4)cc2)c2ccc(-c3ccc(C(F)(F)F)cc3)cc2c1
- Stability [1]: 99.7%
- IC50 [2]: 16.4 µM
- Stability [3]: 79.9%
- Stability [4]: 74.2%
